In PubChem BioAssay AID1490 (National Center for Advancing Translational Sciences (NCATS), 2009) one finds Potency data, which are given here for 14 compounds.

This is a selection; strong and weak results do not stand in their true shares. Results filed as inconclusive are left out. Calls of active or inactive are those of the source. The call rests on the fitted dose curve; in most records, active means well fitted inhibition curve with a large enough effect; inconclusive means small, poorly fitted or top-dose-only effect, or another doubt; inactive means no such curve, though single readings can be large or run the other way.
Potency means the concentration at half of the fitted maximal effect.

The target in this assay is 4'-phosphopantetheinyl transferase ffp (Bacillus subtilis) (UniProt Q9F4F7). As to the kind of experiment: qHTS Assay for Inhibitors of Bacillus subtilis Sfp phosphopantetheinyl transferase (PPTase).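 Further: the enzyme is Sfp with the accession as filed and its product quenches rhodamine fluorescence.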 As to conditions: Biochemical Sfp PPTase activity. Background: In qHTS, concentration-response curves come from the screen itself.
`Clc1n[nH]nc1-c1nn[nH][15n]1`: the Potency was active: 56.2 µM.

As for `CC(C)(C)C(=O)NC(Sc1ncccn1)C(Cl)(Cl)Cl` (centres undefined), the Potency is active: 8.91 µM.

For `CS(=O)(=O)c1cc([N+](=O)[O-])c2no[n+]([O-])c2c1`, the Potency was active: 3.16 µM.

As to `O=[N+]([O-])c1cc([N+](=O)[O-])c(-c2ccn[nH]2)s1`, the Potency was active: 70.8 µM.

In the case of `Cc1cc(SC(NC=O)C(Cl)(Cl)Cl)ncn1` (centres undefined), the Potency was active: 2 µM.

Consider `Cc1cc(SC(NC(=O)c2ccccc2)C(Cl)(Cl)Cl)nc(C(C)C)n1` (centres undefined), for which the Potency is active: 28.2 µM.

On to `CC(C)(C)C(=O)NC(Sc1ccncn1)C(Cl)(Cl)Cl` (centres undefined), for which the Potency is active: 7.94 µM.

Turning to `CCc1nc2c(n1)c1c(non1O)c1c2no[n+]1[O-]`, the Potency is active: 56.2 µM.

As for `COc1ccc(C2=NCC(CBr)S2)cc1` (centres undefined), the Potency was active: 50.1 µM.

With `Cc1c2non([O-])c-2c(C)[n+](=O)[n+]1[O-]`, the Potency is active: 3.98 µM.

For the compound `O=C(NC(Sc1ccncn1)C(Cl)(Cl)Cl)c1ccccc1` (centres undefined), the Potency is active: 11.2 µM.

As to `Nc1cccc2ccc([As](=O)(O)O)cc12`, the Potency is active: 79.4 µM.

For `Cc1cc(SC(NC(=O)c2ccc(F)cc2)C(Cl)(Cl)Cl)ncn1` (centres undefined), the Potency is active: 8.91 µM.

With `CCOc1ccc(C2=NCC(CBr)S2)cc1` (centres undefined), the Potency was active: 17.8 µM.
